Assay [1] addresses T1, Nuclear receptor ROR-alpha (Homo sapiens) (UniProt P35398).
T1 sequence (whole entry): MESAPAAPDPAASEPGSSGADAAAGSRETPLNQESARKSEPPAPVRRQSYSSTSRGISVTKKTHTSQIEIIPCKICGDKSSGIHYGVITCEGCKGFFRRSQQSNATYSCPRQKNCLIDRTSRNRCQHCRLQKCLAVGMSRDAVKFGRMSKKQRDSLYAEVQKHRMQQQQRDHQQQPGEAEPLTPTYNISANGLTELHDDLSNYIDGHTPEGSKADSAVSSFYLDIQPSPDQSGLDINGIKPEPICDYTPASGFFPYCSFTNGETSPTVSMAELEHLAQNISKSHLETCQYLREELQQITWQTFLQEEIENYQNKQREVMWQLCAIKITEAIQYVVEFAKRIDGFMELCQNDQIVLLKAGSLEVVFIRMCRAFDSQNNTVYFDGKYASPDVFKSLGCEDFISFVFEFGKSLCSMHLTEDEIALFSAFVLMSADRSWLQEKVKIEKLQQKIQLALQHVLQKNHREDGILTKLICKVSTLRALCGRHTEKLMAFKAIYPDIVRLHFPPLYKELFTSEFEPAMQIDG
Kind of assay: Inhibition of RORalpha (unknown origin). The conditions noted are these: dose microM >10.

Chains of the proteins cited; added tags and fusions are not shown.
UniProt Q13133, whole entry: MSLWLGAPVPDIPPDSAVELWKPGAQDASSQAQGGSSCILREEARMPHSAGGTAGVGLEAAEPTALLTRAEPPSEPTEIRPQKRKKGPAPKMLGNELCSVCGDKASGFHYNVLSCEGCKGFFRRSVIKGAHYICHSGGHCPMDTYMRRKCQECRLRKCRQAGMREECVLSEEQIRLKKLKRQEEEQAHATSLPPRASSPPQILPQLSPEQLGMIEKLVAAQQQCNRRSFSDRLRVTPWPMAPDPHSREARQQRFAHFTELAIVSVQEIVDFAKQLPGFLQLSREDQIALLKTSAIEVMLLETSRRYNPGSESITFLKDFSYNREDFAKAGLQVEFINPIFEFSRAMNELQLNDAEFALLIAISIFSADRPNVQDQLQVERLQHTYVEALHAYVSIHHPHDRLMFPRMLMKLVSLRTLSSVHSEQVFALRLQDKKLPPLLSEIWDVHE
UniProt P55055, whole entry: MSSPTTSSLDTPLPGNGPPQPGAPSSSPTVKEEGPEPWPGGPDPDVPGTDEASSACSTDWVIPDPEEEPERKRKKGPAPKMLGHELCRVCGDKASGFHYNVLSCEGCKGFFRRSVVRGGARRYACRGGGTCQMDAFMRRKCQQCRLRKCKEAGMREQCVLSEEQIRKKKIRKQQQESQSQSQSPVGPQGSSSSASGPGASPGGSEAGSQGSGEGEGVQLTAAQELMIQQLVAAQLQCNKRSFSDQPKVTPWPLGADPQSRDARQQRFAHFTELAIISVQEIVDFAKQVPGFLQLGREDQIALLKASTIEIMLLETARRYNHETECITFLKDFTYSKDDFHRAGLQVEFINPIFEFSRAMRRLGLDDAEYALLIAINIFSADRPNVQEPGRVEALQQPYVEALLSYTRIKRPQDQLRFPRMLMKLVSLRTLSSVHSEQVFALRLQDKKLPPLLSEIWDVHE

Assay [2] concerns the target T2, Nuclear receptor ROR-beta (Homo sapiens) (UniProt Q92753).
T2 sequence (whole entry): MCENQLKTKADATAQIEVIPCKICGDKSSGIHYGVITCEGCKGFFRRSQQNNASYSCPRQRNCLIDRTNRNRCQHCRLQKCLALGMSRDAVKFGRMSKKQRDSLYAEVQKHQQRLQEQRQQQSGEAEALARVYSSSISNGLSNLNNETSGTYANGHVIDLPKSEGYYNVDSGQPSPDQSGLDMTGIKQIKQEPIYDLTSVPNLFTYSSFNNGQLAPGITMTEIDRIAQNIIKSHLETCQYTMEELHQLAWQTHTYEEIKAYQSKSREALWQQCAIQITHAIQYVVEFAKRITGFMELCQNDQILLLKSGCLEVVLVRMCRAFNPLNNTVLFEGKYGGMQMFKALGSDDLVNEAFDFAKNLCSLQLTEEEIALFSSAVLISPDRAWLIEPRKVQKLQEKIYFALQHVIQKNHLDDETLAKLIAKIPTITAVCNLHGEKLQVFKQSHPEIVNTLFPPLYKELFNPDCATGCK
As to the kind of experiment: Inhibition of RORbeta (unknown origin). The conditions noted are these: dose microM >10.

The target in assay [3] is Oxysterols receptor LXR-alpha (Homo sapiens) (UniProt Q13133). Kind of assay: Inhibition of LXRalpha (unknown origin). The settings on record: dose microM >7.5.
In assay [4] the target is Oxysterols receptor LXR-beta (Homo sapiens) (UniProt P55055). Kind of assay: Inhibition of LXRbeta (unknown origin). The conditions noted are these: dose microM >3.8.

In the case of `CC(C)(O)CNC(=O)[C@@H]1CC[C@@]2(S(=O)(=O)c3ccc(F)cc3)c3ccc(C(F)(C(F)(F)F)C(F)(F)F)cc3CC[C@@H]12`, the INH in assay [1] is greater than 10 µM; in assay [2], greater than 10 µM; in assay [3], greater than 7.5 µM; in assay [4], greater than 3.8 µM.

The values are drawn from ChEMBL document CHEMBL4673237, “Annulation reaction enables the identification of an exocyclic amide tricyclic chemotype as retinoic acid Receptor-Related orphan receptor gamma (RORγ/RORc) inverse agonists” (Bioorg Med Chem Lett, 2020).
